US6919425B2, “Isolation of a cell-specific internalizing peptide that infiltrates tumor tissue for targeted drug delivery” (Board of Regents, The University of Texas System, priority 2000, dated 2005)

System: MDA177Tu cells
Assay: In vitro internalization assay, MDA177Tu cells
Conditions: FITC-conjugated peptides, FIG. 1A

| Sequence | effect of shifting the position of HN-1 within the peptide or jumbling the sequence: inhibition of internalization |
| --- | --- |
| GSRRASVTSPLNIHNGQKL | did not inhibit its internalization |
| GGGTSPLNIHNGQKLGGGS | did not inhibit its internalization |

This is a selection: effects in other tests are not listed, and their absence says nothing.
